Laboratory results as given in US12121500B2, “Inhibitors of Bunyaviridae and uses thereof” (priority 2020, dated 2024).

Key:
[1] = molecular target: T1, human ribonuclease H1 (Homo sapiens, UniProt O60930); test: biochemical
T1 construct: made in house; host or cells: E. coli
T1 sequence (O60930 1-286): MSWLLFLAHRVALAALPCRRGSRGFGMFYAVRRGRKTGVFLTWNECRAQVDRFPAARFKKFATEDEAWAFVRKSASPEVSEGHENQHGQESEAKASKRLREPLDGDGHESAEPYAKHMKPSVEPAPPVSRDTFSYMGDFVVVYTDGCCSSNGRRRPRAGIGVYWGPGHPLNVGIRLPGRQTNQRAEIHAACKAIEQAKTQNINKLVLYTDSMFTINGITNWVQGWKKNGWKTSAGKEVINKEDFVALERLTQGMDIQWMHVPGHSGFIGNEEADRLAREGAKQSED

[2] = tested on: HepDES19; test: Cytotoxicity in HepDES19 cells, MTS assay; details: read-out: CC50 HepDES19, 3 days, * marks limit value

Compound	IC50 [1] [µM]	CC50 [2] [µM]
CC(C)Sc1ccc(SC(C)C)c(O)c(=O)c1O [Compound 696]	> 500	
Cc1cc(O)c(=O)c(O)cc1S(=O)(=O)c1ccccc1 [Compound 336]		45.4
